The values below come from patent US9126948B2, “Pyrimidine-4,6-diamine derivatives as PI3K inhibitors” (Incyte Holdings Corporation, priority 2011, dated 2015).

Sequences of proteins named here, by UniProt entry; tags and fusion partners are left off. A change or cut given only in a name is not applied to a line headed by its entry.
UniProt O00329, whole entry, species assumed: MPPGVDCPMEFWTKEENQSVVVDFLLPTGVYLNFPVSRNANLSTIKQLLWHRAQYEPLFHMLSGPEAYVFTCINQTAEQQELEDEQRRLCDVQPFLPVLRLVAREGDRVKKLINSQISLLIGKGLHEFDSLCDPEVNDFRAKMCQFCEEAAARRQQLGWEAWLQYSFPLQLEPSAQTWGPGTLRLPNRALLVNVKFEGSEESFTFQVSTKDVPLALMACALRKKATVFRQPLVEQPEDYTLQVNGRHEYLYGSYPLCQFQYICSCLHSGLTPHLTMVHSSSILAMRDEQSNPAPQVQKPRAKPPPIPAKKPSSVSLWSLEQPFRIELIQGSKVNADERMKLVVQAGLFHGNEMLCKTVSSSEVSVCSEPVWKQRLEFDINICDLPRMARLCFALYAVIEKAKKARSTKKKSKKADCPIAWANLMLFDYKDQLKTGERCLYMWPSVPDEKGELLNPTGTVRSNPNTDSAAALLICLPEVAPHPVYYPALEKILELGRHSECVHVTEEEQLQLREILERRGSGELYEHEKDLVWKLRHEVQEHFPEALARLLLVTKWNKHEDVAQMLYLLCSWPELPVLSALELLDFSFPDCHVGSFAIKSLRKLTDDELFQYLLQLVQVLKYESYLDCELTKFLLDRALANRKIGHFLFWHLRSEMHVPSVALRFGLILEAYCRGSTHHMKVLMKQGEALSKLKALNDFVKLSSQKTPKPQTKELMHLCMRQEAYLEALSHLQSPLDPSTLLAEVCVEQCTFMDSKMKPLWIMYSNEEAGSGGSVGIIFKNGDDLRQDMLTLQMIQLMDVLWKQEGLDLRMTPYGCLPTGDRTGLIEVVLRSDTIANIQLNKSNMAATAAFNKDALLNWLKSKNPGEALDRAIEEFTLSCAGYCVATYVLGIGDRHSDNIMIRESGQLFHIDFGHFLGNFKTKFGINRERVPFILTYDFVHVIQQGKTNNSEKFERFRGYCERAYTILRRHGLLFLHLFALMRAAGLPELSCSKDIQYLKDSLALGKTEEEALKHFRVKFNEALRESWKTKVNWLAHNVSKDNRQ

Each structure is given as a SMILES string. Structures can show the parent of a compound that is named as a salt.

The target of the assay is PI3Kδ (p110δ/p85α) (Homo sapiens (Human), UniProt O00329). As to the kind of experiment: PI3Kδ Scintillation Proximity Assay. It is filed as biochemical. The note with it: 20 μM PIP2, 20 μM ATP, 4 nM PI3Kδ, 210 min; read-out: PI3Kδ SPA IC50. An excerpt: [γ-^33P]ATP (10 mCi/mL) was purchased from Perkin-Elmer (Waltham, Mass.). Lipid kinase substrate, D-myo-Phosphatidylinositol 4,5-bisphosphate (PtdIns(4,5)P2)D(+)-sn-1,2-di-O-octanoylglyceryl, 3-O-phospho linked (PIP2), CAS 204858-53-7, was purchased from Echelon Biosciences (Salt Lake City, Utah). PI3Kδ (p110δ/p85α) was purchased from Millipore (Bedford, Mass.). ATP, MgCl2, DTT, EDTA, MOPS and CHAPS were purchased from Sigma-Aldrich (St. Louis, Mo.). Wheat Germ Agglutinin (WGA) YSi SPA Scintillation Beads was purchased from GE healthcare life sciences (Piscataway, N.J.).
The kinase reaction was conducted in polystyrene 384-well matrix white plate from Thermo Fisher Scientific in a final volume of 25 μL. Inhibitors were first diluted serially in DMSO and added to the plate wells before the addition of other reaction components. The final concentration of DMSO in the assay was 0.5%. The PI3K assays were carried out at room temperature in 20 mM MOPS, pH 6.7, 10 mM MgCl2, 5 mM DTT and CHAPS 0.03%. Reactions were initiated by the addition of ATP, the final reaction mixture consisted of 20 μM PIP2, 20 μM ATP, 0.2 μCi [γ-^33P]ATP, 4 nM PI3Kδ. […] After the plate sealing, plates were shaken overnight at room temperature and centrifuged at 1800 rpm for 10 minutes, the radioactivity of the product was determined by scintillation counting on Topcount (Perkin-Elmer). […]

As for `COc1c(C(C)Nc2ncnc(N)c2C#N)cc(Cl)c(C)c1-c1cncc(S(C)(=O)=O)c1` (stereo not shown) [Example 1, 4-Amino-6-[(1-{5-chloro-2-methoxy-4-methyl-3-[5-(methylsulfonyl)pyridin-3-yl]phenyl}ethyl)amino]pyrimidine-5-carbonitrile trifluoroacetic acid salt], the IC50 is < 20 nM.

One may read the IC50 as the concentration that inhibits the measured activity by half.
